This assay addresses Delta-type opioid receptor (Mus musculus, UniProt P32300). Description: Agonist activity at delta opioid receptor assessed as inhibition of electrically-evoked contraction of mouse vas deferens. In kind it is functional, tissue-based.

Protein sequences, listed by entry. Tags and fused reporters are not part of them.
UniProt P32300, whole entry: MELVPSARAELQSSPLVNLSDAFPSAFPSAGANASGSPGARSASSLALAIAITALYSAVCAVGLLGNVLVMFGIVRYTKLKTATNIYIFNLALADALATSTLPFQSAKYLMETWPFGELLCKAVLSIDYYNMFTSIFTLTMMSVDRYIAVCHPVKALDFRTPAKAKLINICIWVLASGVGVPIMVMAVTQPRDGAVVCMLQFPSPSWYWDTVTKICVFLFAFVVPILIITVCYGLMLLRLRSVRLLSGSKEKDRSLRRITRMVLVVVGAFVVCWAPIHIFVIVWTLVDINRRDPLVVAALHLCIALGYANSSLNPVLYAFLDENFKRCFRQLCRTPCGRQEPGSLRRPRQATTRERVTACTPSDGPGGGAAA

Structures are written as SMILES.

As usually defined, the IC50 is the concentration needed to halve the response being measured.

Turning to `CC(C)[C@H](NC(=O)[C@H](CC(=O)O)NC(=O)[C@H](Cc1ccccc1)NC(=O)[C@@H](C)NC(=O)[C@@H](N)Cc1ccc(O)cc1)C(=O)N[C@H](C(=O)NCC(N)=O)C(C)C` [DELTORPHIN C], the IC50 came to 371 pM.

For the origin of these results see ChEMBL document CHEMBL1146884, “Effect of lysine at C-terminus of the Dmt-Tic opioid pharmacophore” (J Med Chem, 2006).
